How the values were obtained:
[1] = Mortality after chronic treatment; settings: for mortality after chronic treatment (Log-rank test): IN-DAN, SQ-DAN
[2] = tested on: NMDA mediated elevation of cytosolic Ca2+ concentrations in iPSC from AD patients; assay: NMDA mediated elevation of cytosolic Ca2+ (Fura-2/AM); settings: NMDA 500 μM; SAD and FAD cells compared with CON

| Molecule | Mortality % ([1]; 5XFAD mice, intranasal, early treatment (In Dan E)) | Mortality % ([1]; 5XFAD mice, intranasal, late treatment (In Dan L)) | Mortality % ([1]; 5XFAD mice, subcutaneous, early treatment (Sub Dan E)) | Mortality % ([1]; 5XFAD mice, subcutaneous, late treatment (Sub Dan L)) | mortality after chronic treatment (Log-rank test) ([1]; 5XFAD, ETG, LTG) | Mortality % ([1]; WT mice, intranasal, early treatment (In Dan E)) | Mortality % ([1]; WT mice, intranasal, late treatment (In Dan L)) | Mortality % ([1]; WT mice, subcutaneous, early treatment (Sub Dan E)) | Mortality % ([1]; WT mice, subcutaneous, late treatment (Sub Dan L)) | mortality after chronic treatment (Log-rank test) ([1]; WT, ETG and LTG) | integrated cytosolic Ca2+ (AUC) [2] |
| --- | --- | --- | --- | --- | --- | --- | --- | --- | --- | --- | --- |
| O=C1CN(/N=C/c2ccc(-c3ccc([N+](=O)[O-])cc3)o2)C(O)=N1 [dantrolene] | (12.5%) | (6.3%) | (14.3%) | (6.7%) | No significant difference | (11.1%) | (0%) | (23.5%) | (0%) | No significant differences |  |
| N-methyl-d-aspartate |  |  |  |  |  |  |  |  |  |  | greater overall exposure |

Reference: patent US20220354827A1 (priority 2019, published 2022)
